“Also recorded” adds a separate entry of the source.
Legend:
N87-TM-1 cells = settings: N87-TM-1 versus parental N87
Description: (§1) N87 cells were passaged into two separate flasks and each flask was treated identically with respect to the resistance-generation protocol to enable biological duplicates. […] The procedure was intended to simulate the chronic, multi-cycle (on/off) dosing at maximally tolerated doses typically used for cytotoxic therapeutics in the clinic, followed by a recovery period. […] Data were collected from various thawed cryopreserved populations derived from a single selection, over approximately 1-2 years after model development to ensure consistency in the results.
(§2) ADCs were prepared as indicated in Example 3. Unconjugated maytansine analog (DM1) and auristatin analogs were prepared by Pfizer Worldwide Medicinal Chemistry (Groton, Conn.). Other standard-of-care chemotherapeutics were purchased from Sigma (St. Louis, Mo.). Cells were seeded in 96-well plates at low density, then treated the following day with ADCs and unconjugated payloads at 3-fold serial dilutions at 10 concentrations in duplicate. Cells were incubated for 4 days in a humidified 37° C./5% CO2 incubator. The plates were harvested by incubating with CellTiter® 96 AQueous One MTS Solution (Promega, Madison, Wis.) for 1.5 hours and absorbance measured on a Victor plate reader (Perkin-Elmer, Waltham, Mass.) at wavelength 490 nm. IC50 values were calculated using a four-parameter logistic model with XLfit (IDBS, Bridgewater, N.J.).

N87-TM-2 cells = settings: N87-TM-2 versus parental N87
Description: as §1, §2

N87-TM-2 tumors = test: In vivo efficacy on T-DM1 resistant N87-TM-2 tumors in NSG mice; parameters: species or system mouse; settings: 6 and 10 mg/kg, Q4Dx4, N87-TM-2 model
N87-TM tumors = test: In vivo efficacy on N87-TM tumors refractory to T-DM1, switch of therapy at day 14; parameters: species or system mouse; settings: switch to T(kK183C+K290C)-vc0101 at day 14
[1] = test system: N87 cell line xenograft tumors; test: Bystander effect, immunohistochemistry (human IgG, pHH3) of N87 xenograft tumors; format: in vivo, mouse; settings: single dose, T-DM1 6 mg/kg or T-vc0101 3 mg/kg, 96 hours
Source text: The ability of a released ADC payload to kill neighboring cells is known as the bystander effect. […] Tumor sections were stained for human IgG to detect ADC bound to tumor cells and phospho-histone H3 (pHH3) to detect mitotic cells as a readout of the proposed mechanism of action for the payloads of both ADCs.

[2] = test system: T-DM1 resistant cells (N87-TDM); test: Cytotoxicity on cells relapsed from T-DM1 treatment in vivo (CellTiter Glo, 96 hours); format: cell-based; settings: compared to parental N87
Description: Cells were incubated for 96 hours in a humidified 37° C./5% CO2 incubator.

[3] = test system: Her2-expressing cell lines BT474 and SKBR3; test: ADCC assay (LDH release, NK-92 or human PBMC effector cells); format: cell-based; settings: 1 μg/ml antibody or ADC, 6 hours
[4] = test system: GA0044 patient-derived xenografts; test: GA0044 patient-derived gastric cancer xenograft model; format: in vivo, mouse; settings: IV Q4dx4, dose not stated

T-DM1
refractory to the ADC compared with parental cells (N87-TM-1 cells): 114 fold | refractory to the ADC compared with parental cells (N87-TM-2 cells): 146 fold | prevention of tumor doubling (N87-TM-2 tumors): failed to do so | tumor growth response (N87-TM tumors): grew through these treatments

T-vc0101: trastuzumab conventionally conjugated to 0101 via vc linker; DAR 4.2
bystander effect [1]: able to elicit a strong bystander effect; also recorded: Bystander activity is observed | location of the majority of pHH3 positive tumor cells [1]: extend beyond the location of the ADC | sensitivity of cells relapsed from T-DM1 treatment (in words) [2]: sensitive

trastuzumab
ADCC activity (in words) [3]: conform the reported ADCC activities | tumor growth compared to vehicle [4]: no appreciable difference in tumor growth as compared to vehicle treated tumors

Reference: patent US10689458B2, “Site specific HER2 antibody drug conjugates” (Pfizer Inc., priority 2015, dated 2020)
